Experimental data taken from US12622977B2, “Antibody drug conjugate” (CHIA TAI TIANQING PHARMACEUTICAL GROUP CO., LTD., priority 2020, dated 2026).

Tests used:
Assay type in all cases: cell-based
[1] = system: BT474 Her2+++ tumor cells; assay: Killing of Her2 positive target cell BT474 with human PBMC effector cells (ADCC, CytoTox96); settings: effector-to-target ratio 10:1
JIMT-1 tumor cells = assay: Killing of trastuzumab-resistant cell JIMT-1 with human PBMC effector cells (ADCC, CytoTox96); settings: human PBMC effector cells, effector-to-target ratio 20:1
[2] = system: NCI-N87 Her2++ tumor cells; assay: Killing of Her2 positive target cell NCI-N87 with human PBMC effector cells (ADCC, CytoTox96); settings: effector-to-target ratio 10:1
BT474 cells = assay: Proliferation inhibition of BT474 cells by antibodies and antibody-drug conjugates (CTG); settings: drug range 5000 ng/mL to […]
SK-BR-3 cells = assay: Proliferation inhibition of SK-BR-3 cells by antibodies and antibody-drug conjugates (CTG); settings: SK-BR-3, CTG, drug range 5000 ng/mL to […]
NCI-N87 cells = assay: Proliferation inhibition of NCI-N87 cells by antibodies and antibody-drug conjugates (CTG); settings: drug range 5000 ng/mL to […]
[3] = system: BT474 Her2+++ tumor cells; assay: Inhibition of proliferation of BT474 Her2+++ tumor cells (CCK-8); settings: BT474, 5 days

| Substance | EC50 of killing of BT474 tumor cells [1] [ng/mL] | EC50 (JIMT-1 tumor cells) [nM] | EC50 [2] [nM] | Inhibition rate (BT474 cells) [%] | Inhibition rate (SK-BR-3 cells) [%] | Inhibition rate (NCI-N87 cells) [%] | proliferation inhibition rate [3] [%] |
| --- | --- | --- | --- | --- | --- | --- | --- |
| 23C2 Her2-1 | 4.728 | – | – | – | – | – | – |
| Trastuzumab: recombinant humanized monoclonal antibody against HER2, trade name HERCEPTIN; prepared per WHO INN RL78 sequence [reference compound] | – | 0.0744 | 0.0747 | 67.91 | 20.36 | 34.51 | 54.12 |
